By UniProt entry, the sequences of proteins in these tests, tags left out.
UniProt P31652, whole entry: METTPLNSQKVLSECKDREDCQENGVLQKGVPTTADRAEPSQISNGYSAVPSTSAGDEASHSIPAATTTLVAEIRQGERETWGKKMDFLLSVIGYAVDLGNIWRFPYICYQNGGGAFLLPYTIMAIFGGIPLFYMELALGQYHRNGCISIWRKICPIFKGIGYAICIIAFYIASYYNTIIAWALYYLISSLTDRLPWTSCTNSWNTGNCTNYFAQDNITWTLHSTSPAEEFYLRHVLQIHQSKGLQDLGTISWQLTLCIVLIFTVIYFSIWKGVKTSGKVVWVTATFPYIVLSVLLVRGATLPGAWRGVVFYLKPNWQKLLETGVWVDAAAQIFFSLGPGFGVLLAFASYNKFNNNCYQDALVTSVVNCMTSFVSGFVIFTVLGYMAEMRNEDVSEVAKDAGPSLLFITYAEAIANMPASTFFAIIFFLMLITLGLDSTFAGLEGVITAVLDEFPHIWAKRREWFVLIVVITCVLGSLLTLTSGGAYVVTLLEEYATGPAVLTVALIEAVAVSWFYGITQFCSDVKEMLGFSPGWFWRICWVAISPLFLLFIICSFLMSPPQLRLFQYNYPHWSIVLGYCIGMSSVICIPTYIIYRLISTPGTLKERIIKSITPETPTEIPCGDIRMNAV

According to ChEMBL document CHEMBL1129408, “Development of novel, potent, and selective dopamine reuptake inhibitors through alteration of the piperazine ring of 1-[2-(diphenylmethoxy)ethyl]-and 1-[2-[bis(4-fluorophenyl)methoxy]ethyl]-4-(3-phenylpropyl)piperazines (GBR 12935 and GBR 12909)” (J Med Chem, 1996):

Biological target: Sodium-dependent serotonin transporter (Rattus norvegicus, UniProt P31652)
Test: Inhibition of [3H]5-HT reuptake at rat serotonin transporter

COC(=O)[C@@H]1C2CC[C@@H](C[C@@H]1OC(=O)c1ccccc1)N2C (single isomer, unassigned) [COCAINE]
IC50: 304 nM
